Measured values taken from patent US20260242721A1, “A SYNTHETIC CELLULAR ADVANCED SIGNAL ADAPTER (SCASA) SYSTEM” (Danmarks Tekniske Universitet, priority 2023, published 2026).

How the values were obtained:
[1] = target: Aga2-HA-PAS40-(G4S)3-CD19-myc yeast surface display fusion protein (CD19.1 ECD displayed on SCASA yeast aAPCs) (synthetic construct, CD19 part modified from human); assay: cell-based or functional assay
[2] = target: CD19 on the human CD19+ NALM6 B cell precursor leukemia cell line (human) (UniProt P15391); assay: cell-based or functional assay

% CD69+ of CAR T cells after 20 hrs co-cultivation with yeast PPGK1-CD19, 0.2× target cells [1]: 63.6%
% CD69+ of CAR T cells after 20 hrs co-cultivation with yeast PPGK1-CD19, 1.0× target cells [1]: 70%
% CD69+ of CAR T cells after 20 hrs co-cultivation with yeast PPGK1-CD19, 5.0× target cells [1]: 84.7%
CD69 expression intensity of CAR T cells relative to CTRL T cell monocultures, yeast PPGK1-CD19, 0.2× target cells [1]: 13.3 fold
CD69 expression intensity of CAR T cells relative to CTRL T cell monocultures, yeast PPGK1-CD19, 1.0× target cells [1]: 20.4 fold
CD69 expression intensity of CAR T cells relative to CTRL T cell monocultures, yeast PPGK1-CD19, 5.0× target cells [1]: 59.2 fold
% CD69+ of CAR T cells, NALM6, highest end over the target cell ratios [2]: 91.9%
% CD69+ of CAR T cells, NALM6, lowest end over the target cell ratios [2]: 50.3%
CD69 expression intensity of CAR T cells relative to CTRL T cell monocultures, NALM6, 5.0× target cells [2]: 44.6 fold
CD69 expression intensity of CAR T cells, NALM6, lowest end over the target cell ratios [2]: 6.1 fold
Substance: anti-CD19 CAR with fully-human scFv, CD8α hinge and transmembrane domains, CD28 costimulatory domain and CD3ζ activation domain (Hu19-CD828Z) (receptor)
